Key:
mouse TREX1 = mouse TREX1 (Mus musculus, UniProt Q91XB0); assay: mTREX1 Biochemical Assay (fluorescence, dsDNA substrate degradation); settings: read-out: mTREX1 IC50; full length mouse TREX1, 4 h pre-incubation, 18 h reaction at 25° C.
Method: Degradation of the dsDNA liberates free fluorophore to produce a fluorescent signal. Specifically, 7.5 p L of N-terminally His-Tev tagged full length mouse TREX1 (expressed in E. coli and purified in house) in reaction buffer (50 mM Tris, 150 mM NaCl, 2 mM DTT, 0.1 mg/mL BSA, 0.01% (w/v) Tween-20, 5 mM MgCl2, pH 7.4) was added to a 384-well Black ProxiPlate Plus (PerkinElmer) which already contained compound (150 nL) at varying concentrations as a 10 point dose-response in DMSO. The plate was incubated at 25° C. for 4 hours. Reactions were initiated by adding 7.5 μL of dsDNA substrate (Strand A: 5′ TEX615/GCT AGG CAG 3′; Strand B: 5′ CTG CCT AGC/IAbRQSp (Integrated DNA Technologies)) in reaction buffer. […] Final concentrations in the quenched reaction were 5.3 pM TREX1, 53 nM DNA and 59 mM EDTA in a volume of 17 p L. After a 5-minute incubation at room temperature, plates were read in an EnVision plate reader (PerkinElmer) measuring fluorescence at 615 nm following excitation w/ 570 nm light. IC50 values were calculated by comparing the measured fluorescence at 615 nm relative to control wells pre-quenched w/ EDTA (100% inhibition) and no inhibitor (0% inhibition) controls as using non-linear least square four parameter fits and either Genedata or GraphPad Prism (GraphPad Software, Inc.).

Chains of the proteins cited; added tags and fusions are not shown.
UniProt Q91XB0, whole entry: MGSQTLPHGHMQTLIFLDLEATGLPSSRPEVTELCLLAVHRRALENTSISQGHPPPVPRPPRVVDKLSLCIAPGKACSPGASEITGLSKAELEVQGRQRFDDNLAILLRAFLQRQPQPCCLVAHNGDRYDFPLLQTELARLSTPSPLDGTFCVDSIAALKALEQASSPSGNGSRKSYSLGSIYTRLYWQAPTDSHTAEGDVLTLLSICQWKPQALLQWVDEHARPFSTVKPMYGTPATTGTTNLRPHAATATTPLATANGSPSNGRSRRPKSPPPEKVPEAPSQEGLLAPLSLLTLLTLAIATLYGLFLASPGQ
UniProt Q9BQ50, whole entry: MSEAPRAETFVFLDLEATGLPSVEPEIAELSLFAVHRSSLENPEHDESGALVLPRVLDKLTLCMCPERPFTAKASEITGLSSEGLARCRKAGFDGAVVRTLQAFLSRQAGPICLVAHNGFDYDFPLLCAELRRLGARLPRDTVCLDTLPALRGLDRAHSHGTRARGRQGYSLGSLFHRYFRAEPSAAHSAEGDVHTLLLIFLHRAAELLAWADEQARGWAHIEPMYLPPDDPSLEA
UniProt Q9NSU2, whole entry: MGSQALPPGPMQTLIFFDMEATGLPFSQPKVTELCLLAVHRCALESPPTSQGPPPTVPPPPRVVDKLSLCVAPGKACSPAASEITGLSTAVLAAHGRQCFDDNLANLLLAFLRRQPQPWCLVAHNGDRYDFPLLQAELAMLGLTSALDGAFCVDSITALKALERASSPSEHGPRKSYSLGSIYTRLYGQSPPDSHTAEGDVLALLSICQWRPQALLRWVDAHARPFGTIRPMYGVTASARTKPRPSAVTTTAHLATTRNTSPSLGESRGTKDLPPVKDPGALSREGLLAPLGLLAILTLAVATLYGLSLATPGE

human TREX2 = human TREX2 (Homo sapiens, UniProt Q9BQ50); assay: hTREX2 Biochemical Assay (selectivity hTREX1 vs hTREX2); settings: biochemical selectivity for hTREX1 vs hTREX2
Method: Degradation of the dsDNA liberates free fluorophore to produce a fluorescent signal. Specifically, 7.5 p L of N-terminally His-Tev tagged human TREX2 (residues M44-A279, expressed in E. coli and purified in house) in reaction buffer (50 mM Tris, 150 mM NaCl, 2 mM DTT, 0.1 mg/mL BSA, 0.01% (w/v) Tween-20, 5 mM MgCl2, pH 7.4) was added to a 384-well Black ProxiPlate Plus (PerkinElmer) which already contained compound (150 nL) at varying concentrations as a 10 point dose-response in DMSO. The plate was incubated at 25° C. for 4 hours. Reactions were initiated by adding 7.5 μL of dsDNA substrate (Strand A: 5′ TEX615/GCT AGG CAG 3′; Strand B: 5′ CTG CCT AGC/IAbRQSp (IDT)) in reaction buffer. Final concentrations were 50 pM TREX2, 60 nM dsDNA substrate in reaction buffer with 1.0% DMSO (v/v). After 18 hours at 25° C., reactions were quenched by the addition of 2 μL of 500 mM EDTA. […] After a 5-minute incubation at room temperature, plates were read in an EnVision plate reader (PerkinElmer) measuring fluorescence at 615 nm following excitation w/ 570 nm light. IC50 values were calculated by comparing the measured fluorescence at 615 nm relative to control wells pre-quenched w/ stop buffer (100% inhibition) and no inhibitor (0% inhibition) controls as using non-linear least square four parameter fits and either Genedata or GraphPad Prism (GraphPad Software, Inc.).

human TREX1 = human TREX1 (Homo sapiens, UniProt Q9NSU2); assay: hTREX1 Biochemical Assay (fluorescence, dsDNA substrate degradation); settings: read-out: hTREX1 IC50; full length human TREX1, 4 h pre-incubation, 18 h reaction at 25° C.
Method: Degradation of the dsDNA liberates free fluorophore to produce a fluorescent signal. Specifically, 7.5 μL of N-terminally His-Tev tagged full length human TREX1 (expressed in E. coli and purified in house) in reaction buffer (50 mM Tris, 150 mM NaCl, 2 mM DTT, 0.1 mg/mL BSA, 0.01% (w/v) Tween-20, 5 mM MgCl2, pH 7.4) was added to a 384-well Black ProxiPlate Plus (PerkinElmer) which already contained compound (150 nL) at varying concentrations as a 10 point dose-response in DMSO. The plate was incubated at 25° C. for 4 hours. Reactions were initiated by adding 7.5 μL of dsDNA substrate (Strand A: 5′ TEX615/GCT AGG CAG 3′; Strand B: 5′ CTG CCT AGC/IAbRQSp (Integrated DNA Technologies)) in reaction buffer. Final concentrations were 4 pM TREX1, 60 nM dsDNA substrate in reaction buffer with 1.0% DMSO (v/v). After 18 hours at 25° C., reactions were quenched by the addition of 2 p L of 500 mM EDTA. […] After a 5-minute incubation at room temperature, plates were read in an EnVision plate reader (PerkinElmer) measuring fluorescence at 615 nm following excitation w/ 570 nm light. IC50 values were calculated by comparing the measured fluorescence at 615 nm relative to control wells pre-quenched w/ EDTA (100% inhibition) and no inhibitor (0% inhibition) controls as using non-linear least square four parameter fits and either Genedata or GraphPad Prism (GraphPad Software, Inc.).

- IC50 (mouse TREX1): > 10 nM
- hTREX1 vs hTREX2 selectivity (human TREX2): C (C = >50 fold selective for hTREX1)
- IC50 (human TREX1): 1 to 10 nM
SMILES: CC(c1nc(C(=O)Nc2cnoc2)c(O)c(=O)n1C)C(c1ccccc1C#N)c1ccccc1C#N (single isomer, unassigned) [Example 4 Isomer 2]

— US20240262814A1, “MODULATORS OF TREX1” (Constellation Pharmaceuticals, Inc., priority 2021, published 2024)
